Data taken from PMC9362525 (Diabetologia, 2022).

Tested on: adult participants, liver steatosis by VCTE

OR for NAFLD per unit increase of urinary concentration: no significant association
Substance: mono(2-ethylhexyl) phthalate [MEHP]
